This is a selection; strong and weak results do not stand in their true shares. Active and inactive are the calls of the source. Rule as the data show it: active = inhibition above about 30%; inactive = the rest.

Protein sequences, listed by entry. Tags and fused reporters are not part of them. Residues count along the entry.
UniProt P00748, 20-372 limits assumed: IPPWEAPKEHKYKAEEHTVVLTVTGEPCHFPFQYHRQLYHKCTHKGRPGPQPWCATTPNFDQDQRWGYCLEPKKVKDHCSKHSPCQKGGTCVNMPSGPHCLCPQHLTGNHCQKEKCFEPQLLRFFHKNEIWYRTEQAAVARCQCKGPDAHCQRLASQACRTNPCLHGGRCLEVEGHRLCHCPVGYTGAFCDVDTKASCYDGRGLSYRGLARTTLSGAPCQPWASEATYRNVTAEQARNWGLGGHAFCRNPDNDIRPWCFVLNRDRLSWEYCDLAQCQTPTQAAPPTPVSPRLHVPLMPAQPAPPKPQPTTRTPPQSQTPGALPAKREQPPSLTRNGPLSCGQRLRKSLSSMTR
UniProt P00748, 373-615 limits assumed: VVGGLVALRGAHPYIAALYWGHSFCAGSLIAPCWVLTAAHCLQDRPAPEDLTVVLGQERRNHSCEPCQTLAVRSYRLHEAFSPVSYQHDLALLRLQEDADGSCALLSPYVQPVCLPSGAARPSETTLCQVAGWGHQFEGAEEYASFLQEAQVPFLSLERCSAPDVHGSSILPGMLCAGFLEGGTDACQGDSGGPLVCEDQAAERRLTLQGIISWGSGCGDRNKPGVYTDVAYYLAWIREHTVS

The target in the experiment is Coagulation factor XII (Homo sapiens) (UniProt P00748). Briefly: human FXIIa protease inhibitors, primary screen, biochemical, single well (AID 701).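 Also: 0% = enzyme with vehicle only and 100% = no enzyme blank.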 As to conditions: purified human FXIIa, AMC substrate fluorescence, 2 h; at 10 µM; active compounds read high.
For `O=C(NCC1(N2CCOCC2)CCCCC1)c1cc(=O)[nH]c2ccccc12`, the inhibition is inactive: -1.93%. Then `O=C(NCC1(N2CCOCC2)CCCCC1)c1cc2ccccc2o1`, with inactive: 2.9%. The value for `CCC(CO)(C(=O)OC1CN2CCC1CC2)c1ccccc1` (centres undefined) was inactive: 1.28%.

Consider `c1ccc(CN2CCC(Nc3ccccc3)CC2)cc1`, for which the inhibition was inactive: -3.84%.

As a reminder, the inhibition is the drop in the measured response relative to a control, in per cent.

The values above are taken from PubChem BioAssay AID701 (PCMD, 2007).
